Our source for the IC50 values is patent publication US20230078764A1 (Yumanity Therapeutics, Inc., priority 2019, published 2023).

The target in one assay is T1, human SCD5 (Homo sapiens, UniProt Q86SK9).
T1 construct: expressed in transfected cells; host or cells: yeast strain with OLE1 deleted, plasmid-borne human SCD5 (selected in SD-Ura)
T1 sequence (Q86SK9 1-330): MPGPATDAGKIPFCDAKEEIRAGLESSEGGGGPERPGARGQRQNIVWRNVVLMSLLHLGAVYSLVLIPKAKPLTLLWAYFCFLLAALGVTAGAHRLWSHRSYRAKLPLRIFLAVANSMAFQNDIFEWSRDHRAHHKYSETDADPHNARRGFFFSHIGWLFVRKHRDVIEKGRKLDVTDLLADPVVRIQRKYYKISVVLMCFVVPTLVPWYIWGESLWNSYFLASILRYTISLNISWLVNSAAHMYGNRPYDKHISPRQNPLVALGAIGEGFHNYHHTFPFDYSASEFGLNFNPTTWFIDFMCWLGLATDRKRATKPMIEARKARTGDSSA
Briefly: Growth inhibition of yeast strain expressing human SCD5 as sole desaturase (OLE1 deleted), OD600 readout. Type of assay: cell-based.

For a further assay, the target named is T2, human SCD1 (Homo sapiens, UniProt O00767).
T2 construct: expressed in transfected cells; host or cells: yeast strain with OLE1 deleted, plasmid-borne human SCD1 (selected in SD-Ura)
T2 sequence (O00767 1-359): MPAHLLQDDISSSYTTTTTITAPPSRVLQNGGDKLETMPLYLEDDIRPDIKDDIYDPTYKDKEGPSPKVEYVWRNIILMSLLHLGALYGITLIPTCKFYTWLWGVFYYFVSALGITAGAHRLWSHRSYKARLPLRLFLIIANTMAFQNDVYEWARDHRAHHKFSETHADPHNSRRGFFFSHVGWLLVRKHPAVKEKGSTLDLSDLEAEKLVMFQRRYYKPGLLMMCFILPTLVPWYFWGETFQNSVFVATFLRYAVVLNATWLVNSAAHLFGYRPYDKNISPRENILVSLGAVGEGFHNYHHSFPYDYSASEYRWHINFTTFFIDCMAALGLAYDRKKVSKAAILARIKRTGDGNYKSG
The experiment in a line: Growth inhibition of yeast strain expressing human SCD1 as sole desaturase (OLE1 deleted), OD600 readout. In kind it is cell-based.

Setting [1] is: yeast strain expressing human SCD5 as sole desaturase, growth (OD600) after 40 h at 30° C., read-out: SCD5 IC50.
Where [2] appears, read: yeast strain expressing human SCD1 as sole desaturase, growth (OD600) after 40 h at 30° C., read-out: SCD1 IC50.

Usually IC50 stands for the concentration at which inhibition is half-maximal.

Read-outs that look alike come from different tables or passages of the source.

`CN1N=C(C(=O)Nc2ccc(Cc3cccc(C#N)c3)cn2)CCC1=O` [Compound 8, N-(5-(3-cyanobenzyl)pyridin-2-yl)-1-methyl-6-oxo-1,4,5,6-tetrahydropyridazine-3-carboxamide]: the IC50 at human SCD5 (setting [1]) is 4200 nM.

As for `CN1N=C(C(=O)Nc2ccc(Cc3ccc(C(F)(F)F)cc3)cn2)CCC1=O` [Compound 9, 1-methyl-6-oxo-N-(5-(4-(trifluoromethyl)benzyl)pyridin-2-yl)-1,4,5,6-tetrahydropyridazine-3-carboxamide], the IC50 on human SCD1 (setting [2]) turned out to be 3040 nM; at human SCD5 (setting [1]), 560 nM. Take `CN1N=C(C(=O)Nc2ccc(Cc3ccc(Cl)cc3)cn2)CCC1=O` [Compound 12, N-(5-(4-chlorobenzyl)pyridin-2-yl)-1-methyl-6-oxo-1,4,5,6-tetrahydropyridazine-3-carboxamide]: the IC50 is 1600 nM against human SCD1 (SCD1 IC50) and 210 nM against human SCD5 (SCD5 IC50). Consider `CN1N=C(C(=O)Nc2ccc(Cc3ccccc3)cn2)CCC1=O` [Compound 13, N-(5-benzylpyridin-2-yl)-1-methyl-6-oxo-1,4,5,6-tetrahydropyridazine-3-carboxamide], for which the IC50 at human SCD5 (setting [1]) was 1540 nM. On human SCD5 (SCD5 IC50), `Cn1cc(C(=O)Nc2ccc(Oc3cccc(F)c3)cn2)ccc1=O` [Compound 160, N-[5-(3-fluorophenoxy)pyridin-2-yl]-1-methyl-6-oxo-1,6-dihydropyridine-3-carboxamide] had an IC50 of 3070 nM. The same measure, in the same setting: the same measure for `Cn1nc(C(=O)Nc2ccc(Oc3cccc(F)c3)cn2)ccc1=O` [Compound 162, N-[5-(3-fluorophenoxy)pyridin-2-yl]-1-methyl-6-oxo-1,6-dihydropyridazine-3-carboxamide]: 1790 nM.

Consider `CCn1cc(C(=O)Nc2ccc(Oc3cccc(F)c3)cn2)ccc1=O` [Compound 164, 1-ethyl-N-[5-(3-fluorophenoxy)pyridin-2-yl]-6-oxo-1,6-dihydropyridine-3-carboxamide], for which the IC50 at human SCD5 (setting [1]) amounted to 6220 nM.

As to `COc1cccc(Cc2ccc(NC(=O)C3=NN(C)C(=O)CC3)nn2)c1` [Compound 182, N-(6-(3-methoxybenzyl)pyridazin-3-yl)-1-methyl-6-oxo-1,4,5,6-tetrahydropyridazine-3-carboxamide], the IC50 at human SCD5 (setting [1]) was 13300 nM.

In the case of `COc1cccc(Cc2cnc(NC(=O)C3=NN(C)C(=O)CC3)s2)c1` [Compound 210, N-(5-(3-methoxybenzyl)thiazol-2-yl)-1-methyl-6-oxo-1,4,5,6-tetrahydropyridazine-3-carboxamide], the figures for the IC50 at human SCD1 (setting [2]) and on human SCD5 (setting [1]) were 380 nM and 1310 nM, respectively. The matching figures for `CN1N=C(C(=O)Nc2nnc(Cc3cccc(F)c3)s2)CCC1=O` [Compound 211, N-(5-(3-fluorobenzyl)-1,3,4-thiadiazol-2-yl)-1-methyl-6-oxo-1,4,5,6-tetrahydropyridazine-3-carboxamide]: 14600 nM and 2940 nM. Regarding `Cn1nc(C(=O)Nc2cnn(Cc3cccc(Cl)c3)c2)ccc1=O` [Compound 215, N-(1-(3-chlorobenzyl)-1H-pyrazol-4-yl)-1-methyl-6-oxo-1,6-dihydropyridazine-3-carboxamide], the IC50 on human SCD5 (setting [1]) was found to be 4020 nM. Consider `CN1CCCC(C(=O)Nc2ncc(Cc3cccc(F)c3)s2)=N1` [Compound 217, N-(5-(3-fluorobenzyl)thiazol-2-yl)-1-methyl-1,4,5,6-tetrahydropyridazine-3-carboxamide], for which the IC50 was 3690 nM at human SCD1 (setting [2]) and 2380 nM on human SCD5 (setting [1]). Taken in the same sequence, the figures for `CN1N=C(C(=O)Nc2ncc(Cc3ccc(F)c(F)c3)s2)CCC1=O` [Compound 228, N-(5-(3,4-difluorobenzyl)thiazol-2-yl)-1-methyl-6-oxo-1,4,5,6-tetrahydropyridazine-3-carboxamide] were 340 nM and 320 nM. Regarding `CN1N=C(C(=O)Nc2ccc(Cc3ccc(F)cc3)cn2)CCC1=O` [Example 17, N-(5-(4-fluorobenzyl)pyridin-2-yl)-1-methyl-6-oxo-1,4,5,6-tetrahydropyridazine-3-carboxamide], the IC50 on human SCD5 (setting [1]) came to 770 nM.

Turning to `CN1N=C(C(=O)Nc2ccc(Cc3ccc4c(c3)COC4)cn2)CCC1=O` [Example 19, N-(5-((1,3-dihydroisobenzofuran-5-yl)methyl)pyridin-2-yl)-1-methyl-6-oxo-1,4,5,6-tetrahydropyridazine-3-carboxamide], on human SCD5 (setting [1]), the IC50 is 4690 nM. The same measure, in the same setting: the same measure for `CN1N=C(C(=O)Nc2ccc(Cc3cc(F)cc(F)c3)cn2)CCC1=O` [Example 22, N-(5-(3,5-difluorobenzyl)pyridin-2-yl)-1-methyl-6-oxo-1,4,5,6-tetrahydropyridazine-3-carboxamide]: 460 nM. In the case of `COc1cc(Cl)cc(Cc2ccc(NC(=O)C3=NN(C)C(=O)CC3)nc2)c1` [Example 24, N-(5-(3-chloro-5-methoxybenzyl)pyridin-2-yl)-1-methyl-6-oxo-1,4,5,6-tetrahydropyridazine-3-carboxamide], the IC50 on human SCD1 (setting [2]) was determined as 10800 nM; at human SCD5 (setting [1]), 290 nM. Regarding `CN1N=C(C(=O)Nc2ccc(Cc3cc(F)cc(C#N)c3)cn2)CCC1=O` [Example 26, N-(5-(3-cyano-5-fluorobenzyl)pyridin-2-yl)-1-methyl-6-oxo-1,4,5,6-tetrahydropyridazine-3-carboxamide], the IC50 on human SCD5 (setting [1]) turned out to be 1950 nM. On to `CN1N=C(C(=O)Nc2ccc(Cc3cc(F)c(F)c(F)c3)cn2)CCC1=O` [Example 29, 1-methyl-6-oxo-N-(5-(3,4,5-trifluorobenzyl)pyridin-2-yl)-1,4,5,6-tetrahydropyridazine-3-carboxamide], for which the IC50 on human SCD1 (setting [2]) came to 11900 nM; on human SCD5 (setting [1]), 50 nM.
